This note sets out measurements from patent US20130171163A1 (published 2013).

The target of the assay is T1, leukocyte antigen-related protein tyrosine phosphatase (LAR) (human, UniProt P10586).
T1 construct: Endogenous protein in HUVEC lysates; The background section describes LAR as a non-covalent complex of a 150-kDa E subunit and an 85-kDa P subunit, cleaved from a 200-kDa proprotein; In the functional assays, full-length human LAR was overexpressed from adenovirus (AdLAR) or knocked down with siRNA; also called LAR PTP; leukocyte antigen-related (LAR) PTP
The experiment in a line: co-immunoprecipitation from HUVEC lysates with anti-cLAR antibody, Western blot with anti-VEGFR2. The protocol:
C, Lysates from HUVECs stimulated with or without VEGF (20 ng/ml) for 10 min were immunoprecipitated with polyclonal antibodies against anti-cLAR or control goat IgG, followed by immunoblotting with anti-VEGFR2 (top), VEGFR3 (middle) or anti-cLAR antibody (bottom). D, Equal amounts of GST or GST-cLAR fusion protein were immobilized on glutathione-Sepharose beads and then incubated with HUVEC lysates containing equal amount of protein. GST or GST-cLAR-associated proteins were analyzed by Western blotting using anti-IGF-1Rβ antibody. The same membrane was reprobed with anti-GST antibody (E), anti-VEGFR2 (F, top) or anti-VEGFR3 (F, bottom) antibodies.

B1: VEGFR2 (receptor)
chain: not shown
notes: Endogenous protein in HUVEC lysates, with or without VEGF treatment (20 ng/ml, 10 min)
As to B1, the binding result is given as “no binding”.
